Assay outcomes: PubChem BioAssay, Broad Institute
Yeast UUG start-1 – modulators of yeast start codon fidelity, primary screen, whole organism, S. cerevisiae, single point, plate reader; S. cerevisiae UUG-firefly luciferase reporter, luminescence/redox ratio; activity score, % at 18.7 µM; actives 0.13% (n = 350,000); AID 602363, 2012;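 active = replicate mean at a twofold rise or more, about +100% in these data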;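 also: firefly luciferase made from a UUG start codon reports start codon fidelity; reporter light over untreated wells divided by growth signal over untreated wells; some hits fall short of that in this replicate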
FGF22 binding – binders of recombinant human FGF22 by thermal shift | AID 651658 | SYPRO orange fluorescence; percent of sucrose octasulfate shift, DMSO zero | Q9HCT0 | actives 1.5% (n = 340,000) | activity (Tm shift, normalised), % at 9.99 µM;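 active = mean Tm shift, scaled 0 neutral to 100 positive control, at about 1.3% or above, every replicate too, limit read from the data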
PDI inh – blocks human protein disulfide isomerase activity; P07237; PDI insulin aggregation turbidity, A650, 90 min; inhibition, % at 10 µM; actives 0.052% (n = 350,000);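 active = mean inhibition across replicates of 30% or more, whatever share of single replicates reach that level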
ERp5 inh – blocks human ERp5 reductase activity on insulin; Q15084; ERp5 insulin aggregation, absorbance 650 nm, 90 min; inhibition, % at 9.99 µM; actives 0.05% (n = 350,000);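 active = mean replicate inhibition above about 25%, with every replicate also reaching it, limit read from the data, passing the limit was not always enough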
ARNT-TACC3 inh – disrupts binding between human ARNT and TACC3; actives 0.66% (n = 390,000); AlphaScreen His-ARNT PAS-B/GST-TACC3 binding, luminescence; TACC3 fragment carries E629A point mutation; inhibition, % at 9.99 µM;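 active = mean inhibition of replicates at least 50% and at least half of replicates each reaching 50%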
PglD DTNB – PglD (C. jejuni) enzyme inhibition. purified PglD enzyme, DTNB colorimetric CoA detection. inhibition, % at 12.5 µM. actives 0.098% (n = 360,000). AID 602405; in the data active = inhibition above about 16%, passing the limit was not always enough
Yeast UUG start-2 – yeast start codon fidelity modulation | shares compounds with Yeast UUG start-1 | S. cerevisiae UUG-start firefly luciferase, luminescence, 4 h; 100% means double the DMSO signal | activation, % at 38 µM | 540 tested, under 10 active | AID 652061;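 active = signal increase whose fitted curve reaches an absolute level of 40 at a concentration under 10 µM; inactive = activity opposite to the expected increase, or the rest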
A number is an active result; - = inactive; . = not tested or not shown. Hits are enriched below; roughly 1.9% of the tested compounds scored in any of these assays.

SMILES	Yeast UUG start-1	FGF22 binding	PDI inh	ERp5 inh	ARNT-TACC3 inh	PglD DTNB	Yeast UUG start-2
O=C(C[C@H]1C=C[C@H](NC(=O)Cc2ccccn2)[C@H](CO)O1)NCCc1ccccc1	.	.	.	-	.	.	.
COC(=O)C[C@@H]1C[C@H]2c3cc(NC(=O)CC4CC4)ccc3O[C@H]2[C@@H](CO)O1	-	-	-	-	.	-	.
COC(=O)C[C@H]1C[C@@H]2c3cc(NC(=O)CC4CC4)ccc3O[C@@H]2[C@@H](CO)O1	119	-	.	-	-	-	-
O=C1CCCc2cnnn2COC[C@H](Cc2ccccc2)N1	.	-	.	-	.	.	.
O=C(c1ccccc1F)N1C[C@@H]2[C@H](c3ccccc31)[C@@H](CO)N2C(=O)C1CCCC1	active	-	.	-	-	-	-
O=C(c1cccnc1)N1C[C@@H]2[C@H](c3ccccc31)[C@H](CO)N2C(=O)C1CCCC1	103	-	.	-	-	-	-
O=C(c1ccccc1F)N1C[C@H]2[C@@H](c3ccccc31)[C@H](CO)N2C(=O)C1CCCC1	-	-	.	-	-	-	.
O=C(Cc1ccccc1)N1C[C@H]2[C@@H](c3ccccc31)[C@@H](CO)N2C(=O)c1ccc(F)cc1	109	-	.	-	-	-	-
COC(=O)c1ccc(CN2CC(=O)N3[C@@H](CO)[C@H](c4ccc(Br)cc4)[C@@H]3C2)cc1	.	-	.	-	.	.	.
O=C(c1ccc(COc2ccc(Cl)cc2)cc1)N1CCCCC1	410	-	-	-	.	-	-
CCCCOc1ccc(C(=O)N2CCCCCC2)cc1	-	.	-	.	-	-	.
COc1ccc(-c2noc(Cc3cccs3)n2)cc1	active	.	-	.	-	-	-
CC(C)(C)Cc1c(-c2ccc(C#N)cc2)nc2ccc(Cl)cn12	165	-	-	-	.	-	-
Cc1ccc(Cc2c(-c3ccc(C#N)cc3)nc3ccc(Cl)cn23)cc1	-	-	.	-	.	-	.
C[C@H](CO)N1C[C@H](C)[C@@H](CN(C)CC2CCOCC2)Oc2ncc(-c3cccc(F)c3)cc2C1=O	157	.	.	-	.	.	-
COc1ccc(-c2cnc3c(c2)C(=O)N([C@@H](C)CO)C[C@H](C)[C@@H](CN(C)C(=O)NC2CCCC2)O3)cc1	140	-	.	-	-	-	-
COc1ccccc1-c1cnc2c(c1)C(=O)N([C@H](C)CO)C[C@H](C)[C@@H](CN(C)C(=O)c1cccnc1)O2	-	-	.	-	-	-	.
CCCNC(=O)N(C)C[C@@H]1Oc2ncc(-c3ccc(C(=O)N(C)C)cc3)cc2C(=O)N([C@@H](C)CO)C[C@H]1C	104	-	.	-	-	-	-
COc1ccccc1-c1cnc2c(c1)C(=O)N([C@@H](C)CO)C[C@H](C)[C@@H](CN(C)C(=O)c1cccnc1)O2	172	-	.	-	-	-	-
Cc1noc(C)c1S(=O)(=O)Nc1ccc2c(c1)C(=O)N([C@H](C)CO)C[C@H](C)[C@@H](CN(C)C(=O)CCCN(C)C)OCCCC[C@H](C)O2	-	-	.	.	-	-	.
Cc1noc(C)c1S(=O)(=O)Nc1ccc2c(c1)C(=O)N([C@@H](C)CO)C[C@H](C)[C@H](CN(C)C)OCCCC[C@H](C)O2	-	.	.	-	-	-	.
CC1C=NC(S(=O)(=O)N2CC[C@H]3[C@@H](CO)N(C)c4ccc(-c5ccccc5F)cc4[C@H]32)=N1 (some centres undefined)	-	-	.	-	-	-	.
C#CCOCCOCCOCCNc1nc(N2CCN(C(=O)[C@H](CCCN=C(N)N)n3cc(C(N)[C@H](C)CC)nn3)CC2)nc(N2CCN(C(=O)[C@H](CC(N)=O)n3cc(C(N)[C@@H](C)CC)nn3)CC2)n1 (some centres undefined)	121	-	-	-	-	-	-
C#CCOCCOCCOCCNc1nc(N2CCN(C(=O)[C@H](CCC(=O)O)n3cc(C(N)Cc4ccc(O)cc4)nn3)CC2)nc(N2CCN(C(=O)[C@H](CCC(=O)O)n3cc(C(N)[C@H](C)CC)nn3)CC2)n1 (some centres undefined)	112	.	-	.	-	-	-
COC(=O)c1cn(CC(=O)N2CCN(c3ccccc3)CC2)nn1	-	-	.	-	-	-	.
SMILES	Yeast UUG start-1	FGF22 binding	PDI inh	ERp5 inh	ARNT-TACC3 inh	PglD DTNB	Yeast UUG start-2
Cc1ccc(-c2ccc3c(c2)O[C@H](CN(C)C(=O)Nc2ccc(C(F)(F)F)cc2)[C@H](C)CN([C@@H](C)CO)S3(=O)=O)cc1	-	-	.	-	-	-	.
COCC(=O)N1CC2(CCN(Cc3nccs3)CC2)c2c(n(C)c3cc(OC)ccc23)[C@H]1CO	.	-	.	-	.	.	.
CO[C@H]1CN(C)C(=O)c2cc(NC(=O)c3ccccc3)ccc2OC[C@H](C)N(C)C[C@@H]1C	-	-	.	-	-	-	.
C=C(C)C(=O)Nc1ccc(OC(F)(F)C(F)F)c(NC(=O)C(=C)C)c1	635	.	-	.	-	-	-
CC(=O)Nc1ccc(OC(F)(F)C(F)F)c(NC(C)=O)c1	-	-	-	-	-	-	.
C[C@@H]1CN([C@@H](C)CO)C(=O)c2cc(NC(=O)C3CCCCC3)ccc2O[C@H]1CN(C)Cc1ccc(Oc2ccccc2)cc1	-	.	.	.	.	.	.
CSc1ccc(S(=O)(=O)NC2CC2)cc1	155	-	-	-	-	-	-
CCOC(=O)Cn1nc(C)n(-c2cccc(Cl)c2)c1=O	223	-	-	-	.	-	-
CCOC(=O)Cn1nc(C)n(-c2ccc(Cl)cc2)c1=O	.	-	-	-	-	.	.
C[C@@H]1CCCCO[C@@H](CN(C)Cc2ccc(C(=O)O)cc2)[C@H](C)CN([C@@H](C)CO)C(=O)c2cc(NS(=O)(=O)c3ccc(F)cc3)ccc2O1	112	-	.	-	-	-	-
CO[C@@H]1CN(C)C(=O)c2cc(NS(=O)(=O)Cc3ccccc3)ccc2OC[C@@H](C)N(Cc2nccs2)C[C@H]1C	.	-	.	-	-	-	.
CO[C@H]1CN(C)C(=O)c2ccc(NC(=O)c3cc(C)on3)cc2OC[C@@H](C)N(C)C[C@@H]1C	.	-	.	-	-	-	.
CC(C)(C#CC(O)(c1ccccc1)c1ccccc1)N1CCCCC1	-	-	-	-	-	-	.
CC(O)(C#CCN1CCCCCC1)c1ccccc1 (centres undefined)	.	-	-	-	.	.	-
CC(C)(C#CC(O)(c1ccccc1)c1ccccc1)N1CCCC1	.	-	-	-	-	.	-
COc1ccc(S(=O)(=O)N2C[C@@H](O)COC[C@@H]3O[C@H](CC(=O)NCc4ccc(Cl)c(Cl)c4)CC[C@H]32)cc1	-	-	.	-	-	-	.
CCC(=O)N1CC2(C1)[C@H](c1ccccc1)[C@H](CO)N2C(=O)c1ccccc1	.	-	.	-	.	.	.
COCC(=O)Nc1ccc2c(c1)OC[C@@H](C)N(C(=O)c1cnccn1)C[C@@H](C)[C@@H](OC)CN(C)C2=O	156	-	.	-	-	-	-
